Tested on: estrogen synthesis (aromatization)
Assay: Estrogen Synthesis Inhibition in Rats (uterine weight and ovarian steroid concentration)
Type: in vivo, immature female Wistar rats
Details: ovary, 7 days, testosterone-treated control 0.31, p < 0.05
Procedure: Immature female Wistar rats (45-55 grams) were divided into control and test groups of 4-8 animals each. Test compounds were administered for seven days as a component of the diet. Control animals received diet without the test compound. Beginning on the fourth day of the test, all animals treated with the test compound and one half of the control animals were given a subcutaneous injection of 1.0 mg of testosterone propionate in corn oil. The remaining control animals received only an equivalent volume of corn oil. On the seventh day of the test, rats treated with testosterone propionate were injected subcutaneously with 100 μCi of [^3 H]-testosterone in 50 μl of 3:1 (v/v) saline-ethanol.
After two hours, the animals were killed by decapitation. […]
Ovarian proteins were precipitated by the addition of 5.0 ml of ethanol to the remaining aqueous phase. […] Protein was determined according to the method of Bradford, Analytical Biochemistrv, 72, 248 (1976). […]
The visible spots were marked, and the plates were sprayed with primulin (0.001% in 4:1 v/v acetone/water) according to the method of Wright, J. Chromatography, 59, 220 (1971) which allowed for the identification of additional steroids under 365 nm UV light. […] The organic solvent was evaporated and 10.0 ml of scintillation fluid (Beckman Ready Solv-NA) was added to the vials. Samples were analyzed by liquid scintillation spectrometry. […]

OC(c1ccc(Cl)cc1)(c1ccc(Cl)cc1)c1cccnc1 [α,α-bis(4-chlorophenyl)-3-pyridinemethanol]
Mean Steroid Concentration, estrone (30 ppm in feed (approx. 3 mg/kg/day)): 0.19 femtomoles per milligram of protein | Mean Steroid Concentration, estrone (300 ppm in feed (approx. 30 mg/kg/day)): 0.10 femtomoles per milligram of protein

— US4757076A, “Method of inhibiting aromatase” (Eli Lilly and Company, priority 1984, dated 1988)
